The target in one experiment is microsomal h-COX2 (Homo sapiens, UniProt P35354). The experiment can be described thus: Microsomal assay, inhibition of h-COX2 (PGE2 by EIA). In kind it is biochemical. The following applies: read-out: COX-2: IC50; microsomal preparation from baculovirus infected SF9 cells; 1 hour preincubation; 0.1 μM arachidonic acid. Here is the method: Inhibitory activity against microsomal h-COX2 was assessed against a microsomal preparation from baculovirus infected SF9 cells. An aliquot of microsomal preparation was thawed slowly on ice and a 1/40,000 dilution prepared from it into the assay buffer (sterile water, degassed with argon containing 100 mM HEPES (pH 7.4), 10 mM EDTA (pH7.4), 1 mM phenol, 1 mM reduced glutathione, 20 mg/ml gelatin and 0.001 mM Hematin). Once diluted the enzyme solution was then sonicated for 5 seconds (Branson sonicator, setting 4, 1 cm tip) to ensure a homogeneous suspension. 155 μl enzyme solution was then added to each well of a 96-well microtitre plate containing either 5 μl test compound (40× required test concentration) or 5 μl DMSO for controls. Plates were then mixed and incubated at room temperature for 1 hour. Following the incubation period, 40 μl of 0.5 μM arachidonic acid was added to each well to give a final concentration of 0.1 μM. Plates were then mixed and incubated for exactly 10 minutes (room temperature) prior to addition of 25 μl 1M HCl (hydrochloric acid) to each well to stop the reaction. 25 μl of 1M NaOH (sodium hydroxide) was then added to each well to neutralise the solution prior to determination of PGE2 levels by enzyme immunoassay (EIA).
The following IC50 values for inhibition of COX-2 and COX-1 were obtained from the microsomal assay for compounds of the invention: […]

Amino acid sequences for entries named in this document (tags omitted). Residues count along the entry.
UniProt P35354, 18-604 limits assumed: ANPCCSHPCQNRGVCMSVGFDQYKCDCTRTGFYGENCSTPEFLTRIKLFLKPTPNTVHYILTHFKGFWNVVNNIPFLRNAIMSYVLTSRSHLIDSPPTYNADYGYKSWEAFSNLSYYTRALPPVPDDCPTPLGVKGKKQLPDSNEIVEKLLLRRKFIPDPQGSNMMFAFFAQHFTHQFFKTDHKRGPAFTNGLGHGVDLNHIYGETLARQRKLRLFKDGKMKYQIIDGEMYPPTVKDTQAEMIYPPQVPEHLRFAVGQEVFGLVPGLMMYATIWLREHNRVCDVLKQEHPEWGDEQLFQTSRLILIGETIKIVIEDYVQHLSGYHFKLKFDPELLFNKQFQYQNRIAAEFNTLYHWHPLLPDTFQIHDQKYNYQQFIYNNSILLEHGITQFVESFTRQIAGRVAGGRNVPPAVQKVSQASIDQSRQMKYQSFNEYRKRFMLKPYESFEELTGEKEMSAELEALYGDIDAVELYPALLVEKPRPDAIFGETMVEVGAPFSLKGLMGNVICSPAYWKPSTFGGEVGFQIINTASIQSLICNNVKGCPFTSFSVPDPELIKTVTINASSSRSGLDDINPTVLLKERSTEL
UniProt P23219, 24-599 limits assumed: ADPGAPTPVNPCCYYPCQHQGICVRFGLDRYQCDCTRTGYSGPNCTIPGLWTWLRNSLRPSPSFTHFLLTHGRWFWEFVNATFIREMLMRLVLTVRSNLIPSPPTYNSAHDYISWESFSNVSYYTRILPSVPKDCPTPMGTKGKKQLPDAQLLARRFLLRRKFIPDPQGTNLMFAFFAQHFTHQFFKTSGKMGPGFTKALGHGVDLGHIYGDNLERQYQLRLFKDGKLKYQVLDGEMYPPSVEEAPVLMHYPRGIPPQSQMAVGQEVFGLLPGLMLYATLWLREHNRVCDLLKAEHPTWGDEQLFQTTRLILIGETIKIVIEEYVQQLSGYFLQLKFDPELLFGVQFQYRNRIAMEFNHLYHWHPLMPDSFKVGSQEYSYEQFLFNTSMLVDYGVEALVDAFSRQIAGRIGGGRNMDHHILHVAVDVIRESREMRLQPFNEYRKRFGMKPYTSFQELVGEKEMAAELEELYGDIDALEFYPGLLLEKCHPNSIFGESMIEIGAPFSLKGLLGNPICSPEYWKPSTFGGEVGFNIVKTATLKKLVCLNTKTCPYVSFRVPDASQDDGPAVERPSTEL

A further experiment concerns the target COX-1 (Homo sapiens, UniProt P23219). In words: Microsomal assay, inhibition of COX-1. In kind it is biochemical. The following applies: read-out: COX-1: IC50.

A word on the IC50: it is the concentration that gives 50% inhibition.

`CS(=O)(=O)c1ccc(-c2cc(C(F)(F)F)nc(NCc3cccs3)n2)nc1`: the IC50 at microsomal h-COX2 was found to be 40 nM.
On to `CS(=O)(=O)c1ccc(-c2cc(C(F)(F)F)nc(NCc3ccccn3)n2)nc1`, for which the half-maximal inhibitory concentration (IC50) at microsomal h-COX2 turned out to be 542 nM.
`CN(Cc1ccco1)c1nc(-c2ccc(S(C)(=O)=O)cn2)cc(C(F)(F)F)n1`: the 50% inhibitory concentration (IC50) was above 100000 nM at COX-1 and 72 nM at microsomal h-COX2.
Regarding `CN(c1nc(-c2ccc(S(C)(=O)=O)cn2)cc(C(F)(F)F)n1)C1CCCCC1`, the 50% inhibitory concentration (IC50) at COX-1 turned out to be 26300 nM; on microsomal h-COX2 it was 77 nM.
The matching figures for `CN(Cc1ccccc1)c1nc(-c2ccc(S(C)(=O)=O)cn2)cc(C(F)(F)F)n1`: above 100000 nM and 1 nM.
The matching figures for `CS(=O)(=O)c1ccc(-c2cc(C(F)(F)F)nc(NC3CCCC3)n2)nc1`: above 96100 nM and 433 nM.
Turning to `Cc1ccc(CNc2nc(-c3ccc(S(C)(=O)=O)cn3)cc(C(F)(F)F)n2)o1`, the IC50 on COX-1 is above 100000 nM; at microsomal h-COX2, 218 nM.
On to `CS(=O)(=O)c1ccc(-c2cc(C(F)(F)F)nc(NCc3ccc(Cl)cc3)n2)nc1`, for which the figures for the IC50 at COX-1 and on microsomal h-COX2 were 90200 nM and 354 nM, respectively.
With `Cc1ccc(CNc2nc(-c3ccc(S(C)(=O)=O)cn3)cc(C(F)(F)F)n2)cc1`, the IC50 is above 100000 nM on COX-1 and 193 nM on microsomal h-COX2.
`CS(=O)(=O)c1ccc(-c2cc(C(F)(F)F)nc(NCc3ccco3)n2)nc1`: the values for the IC50 at COX-1 and on microsomal h-COX2 were 46800 nM and 748 nM, respectively.

For the origin of these results see US7235560B2, “Pyrimidine derivative as selective COX-2 inhibitors” (priority 2002, dated 2007).
